Test results published in US20230138177A1 (priority 2020, published 2023).

Experiments:
GSK3β = assay: Time course in vitro rabbit reticulocyte transcription/translation of HA-GSK3β (FIG. 7G); conditions: reticulocyte lysate, 300 μM CoCl2
DYRK4 = assay: Time course in vitro rabbit reticulocyte transcription/translation of HA-DYRK4 (FIG. 7F); conditions: reticulocyte lysate, 300 μM CoCl2

CoCl2
abolished: proline hydroxylation of GSK3β (GSK3β) | tyrosine autophosphorylation of GSK3β (GSK3β) | proline hydroxylation of DYRK4 (DYRK4) | tyrosine autophosphorylation of DYRK4 (DYRK4)
